Experimental findings from patent US5308605A, “Diagnosis of tumors with 5-radioiodo-2'-deoxyuridine” (priority 1992, dated 1994) are described below.

Read-outs that look alike come from different tables or passages of the source.

In series [1] the test system is 9 L gliosarcoma. As to the kind of experiment: Scintigraphic imaging of brain tumors after intratumor injection.
In series [2] the test system is 9 L gliosarcoma. Briefly: Biodistribution 40 h after injection in brain tumor-bearing rats.
Series [3] concerns transitional cell carcinoma of the bladder. The class given is in vivo, Fisher 344 rats. An excerpt: No carrier added [^125 I/^131 I] IUdR was synthesized as described previously, see U.S. Pat. No. 4,851,520 hereby incorporated by reference, and purified on a C18 reverse phase HPLC column. The radiochemical purity of the product was>99% as determined by TLC with specific activities of 81.40 TBq/mmol and 96.94 GBq/mmol for [^125 I] IUdR and [^131 I] IUdR, respectively.
The carcinogen N-methyl-N-nitrosourea (MNU), known to induce transitional cell carcinoma of the bladder, was instilled directly into the bladder lumen of 4-to-5-week old female Fisher 344 rats (20 animals) via bladder catheterization using a 22-gauge angiocatheter (1.5 mg/0.15 ml saline intravesically, every other week for a total of 4 doses). The drinking water was supplemented with a combination of trimethoprim-sulfamethoxasole, neomycin sulfate and polymixin B. Twelve to sixteen weeks after the last MNU infusion, the bladder was catheterized and emptied and [^125 I/^131 I ]IUdR (6. 4 to 10. 9 MBq [^125 I]IUdR [172 to 294 μCi] and 10.7 MBq [^131 I ]IUdR [290 μCi]) was administered through the catheter in a 100- or 200- μl volume and left in place for 2 h. The bladder contents were then withdrawn and the bladder rinsed with normal saline (5×1-ml). Nontumor-bearing control rats (16 animals) were injected by the same route with identical amounts of [^125 I/^131 I]IUdR. The drinking water of all animals was supplemented with 0. 1% potassium iodide from 48 to 72 h prior to the administration of the radiopharmaceutical up to the time of sacrifice. The tumor-bearing rats and the non-tumor bearing control rats were divided into Group A consisting of 12 tumor-bearing and 12 control rats, and Group B consisting of 8 tumor-bearing and 4 control rats. Group A was sacrificed 48 hours after administration of the radiopharmaceutical while Group B was sacrificed one (1) week after administration of the radiopharmaceutical.
Several animals also presented additional squamous metaplasia. […] These latter animals also frequently developed stones and calcifying and/or ossifying fibrosis of the bladder wall.
The biodistribution studies were conducted at 48 hours and at 1 week after administration of radiolabeled IUdR in order to quantitate the in vivo distribution of the radiopharmaceutical in terms of percent injected dose per gram of tissue (%ID/g) and to derive tumor to normal tissue ratios. Various organs and tissues of interest were excised, rinsed, blotted dry, weighed, and their radioactive content was determined in a gamma counter along with that of urine, stomach contents, blood and bone marrow.

The subject of series [4] is murine ovarian tumor (MOT). Briefly: Biodistribution after i.p. injection in ovarian tumor-bearing mice. The note with it: 24 h after last of 5 i.p. injections.
The mark [5] stands for this setting: 48 h, papillary carcinoma group.

`O=c1[nH]c(=O)n([C@H]2C[C@H](O)[C@@H](CO)O2)cc1I` [^123 IUdR, 5-iodo-2'-deoxyuridine]: the “scintigraphic activity in the thyroid” value with 9 L gliosarcoma [1] (1 h, potassium iodide in drinking water) is reported as “No activity was seen in the thyroid”. In addition, in the series on 9 L gliosarcoma [1] (1 h after injection), the “ratio of mean counts per pixel in head, tumor-bearing vs control” value was “at least twice”. Besides, the “scintigraphic activity in stomach and bladder” value with 9 L gliosarcoma [1] (1 h post injection) was “Activity in the stomach and the bladder was also evident”. Also, the “ratio of mean counts per pixel in head, tumor-bearing vs control (maximum)” value in the series on 9 L gliosarcoma [1] (38 h) came to 3.8. In addition, the “persistence of activity in the head” value with 9 L gliosarcoma [1] (tumor-bearing animals, images 12-38 h) is listed as “persistence of the activity within the same region in all tumor-bearing animals”. Besides, in the series with 9 L gliosarcoma [2], the right brain/blood ratio stood at 9; the “right brain/frontal lobes ratio” value came to 71; the “right brain/left brain ratio” value worked out at 22; the “tumor to normal tissue ratio, all tissues” value is given as “eight”. In the series with 9 L gliosarcoma [2] (exception of stomach and bladder), the “activity in all other normal tissues” value is “low with the exception of the stomach and the bladder”. In addition, the “injected dose associated with tumor” value in the series on 9 L gliosarcoma [2] (one animal, tumor precisely excised) is 12 % of the injected dose.

In the case of `O=c1[nH]c(=O)n([C@H]2C[C@H](O)[C@@H](CO)O2)cc1I` [^125 IUdR, 5-iodo-2'-deoxyuridine], in series [3] (1 week, group A, FIG. 4), the “tumor to normal tissue ratio, all” value is “above one”; the “tumor to normal tissue ratio, liver” value is recorded as 147.7; the “tumor to normal tissue ratio, normal bladder” value came out at 65.7; the “tumor to normal tissue ratio, small intestine” value is 5.0. Further, the “tumor to normal tissue ratio, all tissue groups” value in series [3] (48 h, FIG. 2, bladder of tumor-bearing / normal tissues of control) is recorded as “above 1”. For the same molecule, in series [3] (48 h, hyperplasia group), the “tumor to normal tissue ratio, bone” value stood at 2.0; the “tumor to normal tissue ratio, muscle” value was 43.2; the “tumor to normal tissue ratio, normal bladder” value came out at 12.2. In series [3] (setting [5]), the “tumor to normal tissue ratio, bone” value is given as 4.4; the “tumor to normal tissue ratio, muscle” value is 92.5; the “tumor to normal tissue ratio, normal bladder” value is given as 26.2. In series [4] (brain, heart), the “tumor-to-normal-tissue ratio, organs with nondividing cells” value was “over 400”. For the same molecule, in series [4] (uterus, intestine, stomach), the “tumor-to-normal-tissue ratio, organs with actively proliferating cells” value came out at 20.
